Reference: PubChem BioAssay AID540317 (National Center for Advancing Translational Sciences (NCATS), 2011)
The list shows a part of the results, in another mix than the full data. Results filed as inconclusive are left out. The source made the active and inactive calls. Calls come from the whole dose curve; as a rule, active = well fitted inhibition curve with a large enough effect; inconclusive = small, poorly fitted or top-dose-only effect; inactive = no such curve, though single readings can be large or run the other way.
Note: nearly all actives have a fitted effect of over 70% in size.

The chains behind the UniProt entries cited, without tags or fusion partners.
UniProt P83916, whole entry: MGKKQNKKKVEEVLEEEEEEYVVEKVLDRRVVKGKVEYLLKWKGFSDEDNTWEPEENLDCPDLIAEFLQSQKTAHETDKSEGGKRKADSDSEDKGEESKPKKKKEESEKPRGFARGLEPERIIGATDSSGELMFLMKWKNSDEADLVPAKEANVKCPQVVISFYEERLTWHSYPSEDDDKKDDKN

What follows are compounds tested against Chromobox protein homolog 1 (Homo sapiens) (UniProt P83916) (assay: HTS for Inhibitors of HP1-beta Chromodomain Interactions with Methylated Histone Tails). Settings: AlphaScreen HP1-beta / biotin-H3K9me3 peptide binding; at 114 µM (top of the series).
With `CCN(CC)C(=S)SC(NC=O)C(Cl)(Cl)Cl` (stereo unspecified) the activity change, negative = inhibition was inactive: 17.6%.
